## Measured affinities in a library of Ab-95 light chain variants

Values reported by Engelhart et al. 2022, doi:10.1038/s41597-022-01779-4 (FLAb copy).

The target is the same throughout: PDVDLGDISGINAS, from the HR2 region of SARS-CoV-2 spike.

Parent: Ab-95, a human scFv built as VH, the linker GGGGSGGGGSGGGGS, VL. Only the CDRs of the light chain vary.
VH: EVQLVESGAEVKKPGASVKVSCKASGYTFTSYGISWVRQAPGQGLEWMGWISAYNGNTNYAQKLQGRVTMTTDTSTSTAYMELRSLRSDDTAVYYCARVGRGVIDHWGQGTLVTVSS
VL: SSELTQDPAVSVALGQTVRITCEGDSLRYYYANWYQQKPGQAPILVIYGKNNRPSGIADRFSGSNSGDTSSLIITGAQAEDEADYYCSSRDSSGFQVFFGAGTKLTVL

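Phage display of a naive human antibody library on the peptide gave the parent. AAYL52 was designed without a model: most single CDR substitutions and a random sample of double and triple ones. AlphaSeq pools MATa yeast showing the antibodies with MATalpha yeast showing the peptide. After mating in shaken culture at 30 °C for 16 h, diploids were selected and their barcode pairs sequenced. Scores were corrected for input abundance and mapped to Kd with protein pairs of known affinity run in the same pool. Each pool was mated in three replicate cultures.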

The parent's light chain CDRs are EGDSLRYYYAN, GKNNRPS, SSRDSSGFQVF; each variant's own CDRs replace them letter for letter.
Each Kd is an estimate from the mating assay, the geometric mean of the replicates in which the pair was seen; lower is stronger.
"nd" means that the variant was in the library but no mating with the target was seen in any replicate; the authors take this as a sign of poor binding, and no number exists.
Background: pairings of library AAYL52 with three empty control strains gave a value in 28% of cases (median 8.2 µM, 5th percentile 800 nM). Values in that range, when seen in few replicates, are hard to tell from nonspecific mating. Also given: how often the same scFv was detected with the empty control strains.

CDR-L1	CDR-L2	CDR-L3	apparent Kd	replicates with signal	empty controls
EGDSLRYYYAT	GENNRPS	SSSDSSGFQVF	5.5 µM	1 of 3	5 of 9
EGDSLFYYYAN	GKNCRPS	SSRDSSKFQVF	13 µM	1 of 3	1 of 9
EGDSLRYYYAN	GKHNRPS	PSRDQSGFQVF	37 µM	1 of 3	3 of 9
EWDSLRYYYAN	GKNNRPS	SSRDESGYQVF	26 nM	3 of 3	1 of 9
EGDSLRYYYAC	GKNNRPS	SSRDSSGAQVF	1.0 µM	1 of 3	0 of 9
EGDSARYYYAN	GKNNRPS	SSRDSSGFCMF	23 µM	2 of 3	2 of 9
EFDSQRYYWAN	GKNNRPS	SSRDSSGFQVF	680 nM	3 of 3	6 of 9
EGDSLRYYYAN	GRNNRPR	SSRDSSFFQVF	6.2 µM	3 of 3	1 of 9
EGDSNRYNYAN	GKNNRPS	SSRDSSGFQQF	22 nM	3 of 3	3 of 9
EGDSSRYYYAN	GKNNRGS	SSRDSSGFQIF	nd	0 of 3	1 of 9
ESDSLRYYYAN	GKLNRPS	SSRDSSGFQVF	47 µM	2 of 3	3 of 9
EGDSLRKYVAN	GKNNTPS	SSRDSSGFQVF	1.1 µM	3 of 3	5 of 9
EGDSLRYYYAN	RWNNRPS	SSRDSTGFQVF	2.7 µM	1 of 3	0 of 9
EGCSLRYCYAL	GKNNRPS	SSRDSSGFQVF	10 µM	3 of 3	5 of 9
EGDSLRRYYAN	GKNNRPS	SSRDSSQFQVH	9.1 µM	3 of 3	1 of 9
DGDSLRYYYAN	GPNNRPS	SSRDSSGFQVV	nd	0 of 3	0 of 9
EGTSLRYYYAN	GKNNRPS	SSRDDSPFQVF	120 nM	3 of 3	3 of 9
VGDSLRYYYCN	GKNRRPS	SSRDSSGFQVF	1.2 µM	1 of 3	1 of 9
KGDSLRYYYAN	GKNNRAS	SSRDSSGFQGF	620 nM	3 of 3	0 of 9
EGDQLREYYAN	GQNNRPS	SSRDSSGFQVF	73 nM	3 of 3	2 of 9
ETDSLRYYYAN	GKVNRPS	SSRDSEGFQVF	2.6 µM	2 of 3	7 of 9
EGDSLRMYYAN	GKNNRPF	SSRDSVGFQVF	1.6 µM	3 of 3	2 of 9
EGDSYRYYYAN	GQNNRPS	SSVDSSGFQVF	51 nM	3 of 3	3 of 9
EGDSLRYRSAN	GKNNRPS	SSRDSSGFQMF	2.8 µM	3 of 3	2 of 9
EGDSLEYYYAN	GKNNRPS	SSRMSSGDQVF	2.1 µM	3 of 3	2 of 9
EGDSLRNDYAN	GKNRRPS	SSRDSSGFQVF	170 nM	3 of 3	3 of 9
EGDSLRYYYTN	GKNSRPS	SSKDSSGFQVF	900 nM	3 of 3	3 of 9
EGDSLRYYYAN	GKNNRPS	MFRDSSGGQVF	180 nM	3 of 3	3 of 9
EGDSLRYYYAN	GKNNRPG	GSRDSSGFQSF	100 µM	1 of 3	1 of 9
RGDSLRYYYEN	GSNNRPS	SSRDSSGFQVF	nd	0 of 3	1 of 9
EGDSLRLYYAN	GKNNRPS	CSRDSSGFGVF	nd	0 of 3	1 of 9
EGDSQRYYYAN	GKNNRPS	SSASSSGFQVF	30 µM	1 of 3	2 of 9
EGDMLRTYYAN	GKNNRPS	KSRDSSGFQVF	38 µM	1 of 3	1 of 9
EGDSLYYYSAN	GKNNRPS	SRRDSSGFQVF	150 nM	3 of 3	3 of 9
NGDSLRYYYQN	GKNNRPS	SSRDSGGFQVF	300 µM	1 of 3	5 of 9
EGDSLRYYYAC	GKNHRPS	SFRDSSGFQVF	2.3 µM	1 of 3	2 of 9
EGDSLRAVYAN	GKNNRPS	SSNDSSGFQVF	60 nM	3 of 3	3 of 9
EGDSLRYMYAN	GKNNRPS	SSRDLSGFQVF	43 nM	3 of 3	2 of 9
ELDSLRYYYAN	GLNNRPS	SSRKSSGFQVF	nd	0 of 3	3 of 9
EGDSLRYYPAN	GKNNRWS	YSRDSSGFQVF	76 nM	3 of 3	4 of 9
EGDSLRYYYAN	GKMWRPS	SSRDSSGFQVF	8.1 µM	1 of 3	1 of 9
EGGSLEYYYAN	GKNNRPS	SSRDSSGEQVF	1.9 µM	2 of 3	0 of 9
EGDSLRYYYAN	HKNNRPS	YSRDSSGFQVA	2.1 µM	1 of 3	0 of 9
SGDSLRYYYAN	GKLNRPS	SSRDSSGGQVF	20 µM	3 of 3	3 of 9
EGDSLRYYYAN	RKNERPS	SSRDSSGKQVF	nd	0 of 3	1 of 9
HGDSLRVYYAN	GKNNRPS	SSRDRSGFQVF	240 nM	3 of 3	3 of 9
EGDSLRYVYAN	GKNNRPS	SSRDSPGFAVF	240 nM	3 of 3	5 of 9
EGDSLAYYYAN	GKWNRPS	SSRDSPGFQVF	220 µM	1 of 3	2 of 9
EGDSLRYYYAN	LKNNRHS	SSRDSTGFQVF	110 µM	2 of 3	5 of 9
EGDELRNYQAN	GKNNRPS	SSRDSSGFQVF	100 nM	3 of 3	3 of 9
EGDSLRYYYAN	GKNNRPS	SQRDWSGFQVF	340 nM	3 of 3	0 of 9
HGDSLRYYIAN	GKNNRPS	SSRMSSGFQVF	2.6 µM	3 of 3	1 of 9
EGDSLRYYYAN	GKRNRPS	CSRDSSTFQVF	22 µM	1 of 3	1 of 9
KGDSLRSYYAN	GKNNRPF	SSRDSSGFQVF	14 nM	3 of 3	3 of 9
EGDSLRHYYAN	GKNNRPS	QSRDSSGFQVL	500 nM	3 of 3	2 of 9